Measured values reported in patent publication US20160222024A1, “S-ENANTIOMER OF TETRACYCLIC INDOLE DERIVATIVE AS PBR LIGANDS” (priority 2013, published 2016).

Chains of the proteins cited; added tags and fusions are not shown. Residues count along the entry.
UniProt P30536, 2-169 T147A: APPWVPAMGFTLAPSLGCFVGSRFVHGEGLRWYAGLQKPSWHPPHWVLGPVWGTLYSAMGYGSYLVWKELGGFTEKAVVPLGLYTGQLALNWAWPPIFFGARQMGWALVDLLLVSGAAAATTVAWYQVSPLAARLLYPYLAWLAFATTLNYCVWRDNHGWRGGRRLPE

Biological target: TSPO (Homo sapiens, UniProt P30536, T147A)
Settings: read-out: High Affinity Site; human platelet membranes of high affinity donors; 5 nM [3H]PK11195; 37° C.; resolved enantiomers

CCC(C)N(C)C(=O)c1cc2ccccc2c(-c2ccccc2Cl)n1 (stereo not shown) [PK11195]
Ki: 4 nM
